Source: paper PMC7689490, “Designed CXCR4 mimic acts as a soluble chemokine receptor that blocks atherogenic inflammation by agonist-specific targeting” (Nature Communications, 2020)

Protein sequences, listed by entry. Tags and fused reporters are not part of them. Residues count along the entry.
UniProt P48061, 22-89 limits assumed: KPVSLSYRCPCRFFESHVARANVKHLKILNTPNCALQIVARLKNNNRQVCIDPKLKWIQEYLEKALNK

Key:
[1] = target: T1, MIF / HA-tagged sCD74(73–232) (Homo sapiens, UniProt P14174); experiment: MST binding competition, Alexa-647-MIF / sCD74 with msR4M-L1; details: Suppl. Fig. 9a, in the presence of msR4M-L1
T1 construct: purchased R&D Systems
T1 sequence (P14174 2-115): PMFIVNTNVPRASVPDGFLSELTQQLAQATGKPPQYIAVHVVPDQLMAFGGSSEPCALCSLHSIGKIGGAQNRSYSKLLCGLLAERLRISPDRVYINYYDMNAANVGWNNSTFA
T1 sequence (P04233 73-232 isoform P04233-2 partner limits assumed): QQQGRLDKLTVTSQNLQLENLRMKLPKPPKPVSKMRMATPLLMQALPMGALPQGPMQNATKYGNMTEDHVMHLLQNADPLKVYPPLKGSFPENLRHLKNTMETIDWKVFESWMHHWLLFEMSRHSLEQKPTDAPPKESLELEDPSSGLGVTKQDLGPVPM

CXCL12 [2] = target: T2, CXCL12 (Homo sapiens, UniProt P48061); experiment: Fluorescence polarization (FP), Fluos-msR4M-L1 / CXCL12; format: binding
T2 construct: purchased Peprotech
Experimental: FP was measured with a JASCO FP-6500 fluorescence spectrophotometer equipped with FDP-223 and FDP-243 polarizers.
Bandwidth for excitation and emission was set at 5 nm and time response at 0.5 s. The excitation wavelength was 492 nm and emission was recorded at 519 nm. Measurements were performed at RT and within 2–3 min upon preparation of the solutions. Polarization was calculated using the equation: P = (Iǁ − G·I⊥) / (Iǁ + G·I⊥), in which Iǁ is the intensity of emitted light polarized parallel to the excitation light, I⊥ is the intensity of emitted light polarized perpendicular to the excitation light, and the G factor was calculated based on the instrumental documentation (https://currentprotocols.onlinelibrary.wiley.com/doi/10.1002/9780470559277.ch090102. Apparent KD values (app. KD) were calculated assuming a 1/1 binding model, using sigmoidal curve fittings with OriginPro 2016 (OriginLab) or GraFit 5 (Erithacus Software Ltd.) data analysis software as appropriate.

[3] = Self-assembly by fluorescence titration (Fluos-peptide with unlabeled peptide); format: physicochemical; details: fluorescence emission at 522 nm
Experimental: Fluorescence spectroscopic titrations were performed using a JASCO FP-6500 fluorescence spectrophotometer. […] The excitation wavelength was 492 nm and emission spectra were obtained between 500 and 600 nm. Apparent KD values (app. KD) were calculated assuming a 1/1 binding model using sigmoidal curve fittings with OriginPro 2016 (OriginLab, Northampton, MA, USA) or GraFit 5 (Erithacus Software Ltd., Wilmington House, UK) data analysis software as appropriate.

CXCL12 [4] = target: T2, CXCL12; experiment: Microscale thermophoresis (MST), TAMRA-msR4M-L1 / CXCL12; format: binding
Experimental: MST measurements were recorded on a Monolith NT.115 instrument with green/red filters (NanoTemper Technologies, Munich, Germany). MST and LED power were set 80 and 95%, respectively. All measurements were performed at 37 °C. MST traces were tracked for 40 s (laser-off: 5 s, laser-on: 30 s; laser-off: 5 s). […] Data points/MST traces were analyzed at an MST-on time of 1.5 s using the MO.Affinity Analysis v2.2.4 (NanoTemper Technologies).
App. KD values were calculated assuming a 1/1 binding model, using sigmoidal curve fittings with OriginPro 2016 (OriginLab) or GraFit 5 (Erithacus Software Ltd.) data analysis software as appropriate.

[5] = target: T1, MIF / HA-tagged sCD74(73–232); experiment: FP binding competition, Alexa-488-MIF / sCD74 with msR4M-L1; details: Suppl. Fig. 9b, in the presence of msR4M-L1
[6] = system: primary mouse spleen B lymphocytes; experiment: MIF-triggered Transwell chemotaxis of primary splenic B cells; format: cell-based; details: 16 nM MIF; estimated from IC50 plot, means of three experiments; read-out: IC50 of inhibition of MIF-mediated B-cell chemotaxis;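 also: migration tracked over 4 h at 37 °C, read out as transmigrated cells counted by flow cytometry with absolute counting beads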
Experimental: A Transwell-based assay was used as described previously. Briefly, splenic B cells were isolated by negative depletion using a Pan B Cell Isolation Kit (Miltenyi Biotec, Bergisch Gladbach, Germany). Purity of the cells was between 95 and 99%. […] Chemotaxis was followed for 4 h at 37 °C in a humidified atmosphere of 5% CO2. Migrated cells were counted by flow cytometry using CountBright™ Absolute Counting Beads (Molecular Probes-Invitrogen).

CXCL12 [7] = target: T2, CXCL12; experiment: Fluorescence spectroscopic titration of Fluos-labeled ectodomain peptides with CXCL12; format: binding
[8] = App. Kd Alexa-MIF + sCD74 + msR4M-L1, 1st curve, replicate 1 (1st curve)
[9] = App. Kd Alexa-MIF + sCD74 + msR4M-L1, 2nd curve, replicate 2 (2nd curve)
[10] = App. Kd Alexa-MIF + sCD74 + msR4M-L1, 3rd curve, replicate 3 (3rd curve)

## CC[C@H](C)[C@H](NC(=O)[C@H](Cc1ccc(O)cc1)NC(=O)[C@H](CCCNC(=N)N)NC(=O)[C@H](CC(=O)O)NC(=O)CCCCCCCCCCCNC(=O)CCCCCNC(=O)[C@H](CCCCN)NC(=O)[C@H](CS)NC(=O)[C@H](CC(C)C)NC(=O)[C@H](Cc1ccccc1)NC(=O)[C@H](CC(N)=O)NC(=O)CNC(=O)[C@H](Cc1ccccc1)NC(=O)[C@H](Cc1ccc(O)cc1)NC(=O)[C@H](Cc1c[nH]c2ccccc12)NC(=O)[C@H](CC(N)=O)NC(=O)[C@H](C)NC(=O)[C@@H](NC(=O)[C@H](C)NC(=O)[C@@H](N)CC(=O)O)C(C)C)C(=O)N[C@@H](CS)C(=O)N[C@@H](CC(=O)O)C(=O)N[C@@H](CCCNC(=N)N)C(=O)N[C@@H](Cc1ccccc1)C(=O)N[C@@H](Cc1ccc(O)cc1)C(=O)N1CCC[C@H]1C(=O)N[C@@H](CC(N)=O)C(=O)N[C@@H](CC(=O)O)C(=O)N[C@@H](CC(C)C)C(=O)N[C@@H](Cc1c[nH]c2ccccc12)C(=O)N[C@H](C(N)=O)C(C)C [msR4M-L1, CXCR4-ECL1[97–110]-6-Ahx-12-Ado-ECL2[182–196]]
[1]; [8]
  pKd: 7.59
[1]; [9]
  pKd: 7.55
[1]; [10]
  pKd: 7.30
CXCL12 [2]; Fluos-msR4M-L1 5 nM, CXCL12 5 nM-2.5 µM, mean of 3, read-out: Fluos-msR4M-L1/CXCL12 (app. KD), FP
  pKd: < 5.60
CXCL12 [2]; replicate 1, read-out: App. Kd Fluos-msR4M-L1/CXCL12 FP, 1st curve
  pKd: < 5.60
CXCL12 [2]; replicate 2, read-out: App. Kd Fluos-msR4M-L1/CXCL12 FP, 2nd curve
  pKd: < 5.60
CXCL12 [2]; replicate 3, read-out: App. Kd Fluos-msR4M-L1/CXCL12 FP, 3rd curve
  pKd: < 5.60
[3]; titration with unlabeled peptide, mean of 3 curves (Suppl. Fig. 6c/6d right panel), read-out: App. Kd, self-assembly, mean values of the 3 curves
  pKd: 6.85
[3]; replicate 1 (1st curve), read-out: App. Kd, self-assembly, 1st curve
  pKd: 6.71
[3]; replicate 2 (2nd curve), read-out: App. Kd, self-assembly, 2nd curve
  pKd: 6.99
[3]; replicate 3 (3rd curve), read-out: App. Kd, self-assembly, 3rd curve
  pKd: 6.90
CXCL12 [4]; App. Kd TAMRA-msR4M-L1/CXCL12 MST, 1st curve, replicate 1
  pKd: < 5.51
CXCL12 [4]; App. Kd TAMRA-msR4M-L1/CXCL12 MST, 2nd curve, replicate 2
  pKd: 6.27
CXCL12 [4]; App. Kd TAMRA-msR4M-L1/CXCL12 MST, 3rd curve, replicate 3
  pKd: < 5.51
CXCL12 [4]; App. Kd TAMRA-msR4M-L1/CXCL12 MST, 4th curve, replicate 4
  pKd: < 5.51
CXCL12 [4]; App. Kd TAMRA-msR4M-L1/CXCL12 MST, 5th curve, replicate 5
  pKd: < 5.51
CXCL12 [4]; TAMRA-msR4M-L1/CXCL12 (app. KD), MST, TAMRA-msR4M-L1 100 nM, 37 °C, 5 independent experiments
  pKd: < 5.51
[5]; [8]
  pKd: 7.38
[5]; [9]
  pKd: 6.82
[5]; [10]
  pKd: 7.12
[6]
  pIC50: 7.82 to 8.00
CXCL12 [7]
  pKd: < 5.20
CXCL12 [7]; read-out: App. Kd Fluos-msR4M-L1/CXCL12, 1st curve, fluorescence spectroscopy, replicate 1
  pKd: < 5.20
CXCL12 [7]; read-out: App. Kd Fluos-msR4M-L1/CXCL12, 2nd curve, fluorescence spectroscopy, replicate 2
  pKd: < 5.20
CXCL12 [7]; read-out: App. Kd Fluos-msR4M-L1/CXCL12, 3rd curve, fluorescence spectroscopy, replicate 3
  pKd: < 5.20
CXCL12 [7]; read-out: app. KD Fluos-peptide/CXCL12, fluorescence spectroscopy
  pKd: < 5.22

pIC50, pKd: −log10 of the molar value. Read-outs that look alike come from different tables or passages of the source.
